The values that follow come from patent publication US10287301B2 (Achillion Pharmaceuticals, Inc., priority 2015, dated 2019).

Chains of the proteins cited; added tags and fusions are not shown. Residues count along the entry.
UniProt P00746, 26-253: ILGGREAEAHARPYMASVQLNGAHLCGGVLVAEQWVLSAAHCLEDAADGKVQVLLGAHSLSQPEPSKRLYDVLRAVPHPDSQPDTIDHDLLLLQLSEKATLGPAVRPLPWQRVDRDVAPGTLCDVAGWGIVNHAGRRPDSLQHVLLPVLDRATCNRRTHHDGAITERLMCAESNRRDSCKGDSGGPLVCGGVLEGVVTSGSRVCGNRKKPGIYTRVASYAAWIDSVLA

In the assay the target is Human Factor D (Homo sapiens (Human), UniProt P00746). The experiment in a line: Human Factor D Assay. Format: biochemical. Here is the method:
Human Factor D (purified from human serum, Complement Technology, Inc.) at 80 nM final concentration was incubated with test compound at various concentrations for 5 minutes at room temperature in 50 mM Tris, 1M NaCl, pH 7.5. A synthetic substrate Z-L-Lys-SBzl and DTNB (Ellman's reagent) are added to final concentrations of 100 μM each. […] IC50 values are calculated by nonlinear regression of complement Factor D reaction rates as a function of test compound concentration.

[1] abbreviates: Table 3, Human Factor D 80 nM, substrate Z-L-Lys-SBzl, read-out: IC50 (Stars).

Where two headings read alike, the source gives them in different places. A value given as a limit tells only on which side of the number the result lay.

For `CC(=O)c1nn(CC(=O)N2CC3CC3C2C(=O)Nc2cccc(Br)n2)c2ccc(-c3cnc(C)nc3)cc12` (centres unmarked) [Compound 369, 3-(2-(3-acetyl-5-(2-methylpyrimidin-5-yl)-1H-indazol-1-yl)acetyl)-N-(6-bromopyridin-2-yl)-3-azabicyclo[3.1.0] hexane-2-carboxamide], the concentration for half-maximal inhibition (IC50) under setting [1] is below 1000 nM.

Regarding `CC(=O)c1nn(CC(=O)N2C[C@@H]3C[C@@H]3[C@H]2C(=O)Nc2cccc(Br)n2)c2ccc(-c3cnc(C)nc3)cc12` [Compound 371, (1S,2S,5R)-3-(2-(3-acetyl-5-(2-methylpyrimidin-5-yl)-1H-indazol-1-yl)acetyl)-N-(6-bromopyridin-2-yl)-3-azabicyclo[3.1.0] hexane-2-carboxamide], the IC50 under setting [1] was below 1000 nM.

In the case of `CC(=O)c1nn(CC(=O)N2C[C@H]3C[C@H]3[C@H]2C(=O)Nc2cccc(Br)n2)c2ccc(-c3cnc(C)nc3)cc12` [Compound 413, (1R,2S,5S)-3-(2-(3-Acetyl-5-(2-methylpyrimidin-5-yl)-1H-indazol-1-yl)acetyl)-N-(6-bromopyridin-2-yl)-3-azabicyclo[3.1.0]hexane-2-carboxamide], the IC50 under setting [1] is below 1000 nM.

Regarding “(2S,4R)-1-(2-(3-Acetyl-5-(2-(methoxymethyl)pyrimidin-5-yl)-1H-indazol-1-yl)acetyl)-N-(6-bromopyridin-2-yl)-4-fluoropyrrolidine-2-carboxamide [Compound 737]”, the IC50 (read-out: IC50) was below 1000 nM.

As to “(2S,4R)-1-(2-(3-Acetyl-5-(2-methyl-[1,2,4]triazolo[1,5-a]pyridin-6-yl)-1H-indazol-1-yl)acetyl)-N-(6-bromopyridin-2-yl)-4-fluoropyrrolidine-2-carboxamide [Compound 661]”, for the setting “read-out: IC50”, the IC50 was below 1000 nM.
